In the test the target is T1, full length GAK protein N-terminally fused with NanoLuc luciferase (Homo sapiens, UniProt O14976).
T1 sequence (O14976 2-1311): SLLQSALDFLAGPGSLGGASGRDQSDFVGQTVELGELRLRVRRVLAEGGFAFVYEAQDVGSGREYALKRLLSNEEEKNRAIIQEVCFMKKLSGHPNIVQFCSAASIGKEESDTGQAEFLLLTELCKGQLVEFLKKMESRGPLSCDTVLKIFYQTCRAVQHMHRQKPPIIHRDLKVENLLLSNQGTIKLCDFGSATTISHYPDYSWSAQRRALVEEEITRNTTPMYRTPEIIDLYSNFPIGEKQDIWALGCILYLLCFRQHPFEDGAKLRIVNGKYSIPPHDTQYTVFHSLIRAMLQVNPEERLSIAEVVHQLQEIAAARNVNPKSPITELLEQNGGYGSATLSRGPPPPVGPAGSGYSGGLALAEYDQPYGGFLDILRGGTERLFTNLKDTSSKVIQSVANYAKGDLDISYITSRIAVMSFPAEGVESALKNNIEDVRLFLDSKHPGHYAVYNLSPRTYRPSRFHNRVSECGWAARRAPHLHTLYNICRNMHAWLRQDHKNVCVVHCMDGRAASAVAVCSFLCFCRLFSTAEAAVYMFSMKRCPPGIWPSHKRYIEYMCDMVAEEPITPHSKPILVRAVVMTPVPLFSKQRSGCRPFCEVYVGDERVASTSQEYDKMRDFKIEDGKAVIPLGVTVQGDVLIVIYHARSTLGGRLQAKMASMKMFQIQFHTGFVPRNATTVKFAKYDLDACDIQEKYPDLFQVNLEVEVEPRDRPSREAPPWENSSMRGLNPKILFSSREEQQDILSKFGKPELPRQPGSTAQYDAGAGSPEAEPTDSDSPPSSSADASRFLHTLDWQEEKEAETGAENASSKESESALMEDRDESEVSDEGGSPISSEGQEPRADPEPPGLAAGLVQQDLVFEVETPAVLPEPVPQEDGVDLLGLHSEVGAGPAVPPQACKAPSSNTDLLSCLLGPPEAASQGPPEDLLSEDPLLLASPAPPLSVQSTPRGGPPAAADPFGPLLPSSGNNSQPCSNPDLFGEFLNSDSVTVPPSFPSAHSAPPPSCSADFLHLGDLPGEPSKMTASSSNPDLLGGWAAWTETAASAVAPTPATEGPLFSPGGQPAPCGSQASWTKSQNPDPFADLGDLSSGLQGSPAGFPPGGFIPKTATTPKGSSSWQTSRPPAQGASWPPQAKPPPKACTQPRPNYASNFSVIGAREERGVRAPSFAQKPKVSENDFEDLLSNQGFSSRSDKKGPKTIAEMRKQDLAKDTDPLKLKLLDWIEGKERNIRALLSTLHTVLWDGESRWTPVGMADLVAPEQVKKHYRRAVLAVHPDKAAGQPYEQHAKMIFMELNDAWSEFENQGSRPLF
Nature of the test: nanoBRET cellular target engagement. Particulars: HEK293T cells, tracer displacement, n=[…] mean. The format is cell-based.

SMILES strings stand for the structures. pIC50: −log10 of the molar value.

The compound `COc1cc(Nc2ccnc3ccc(Br)cc23)cc(OC)c1OC` [compound 2, SGC-GAK-1] gave a negative logarithm of the IC50 (pIC50) of 7.32.

For the origin of these results see article doi:10.1101/757047v1 (biorxiv, 2019).
